Earlier results on one compound are cited in paper PMC4188605, “Biochemical and Pharmacological Characterization of the Human Lymphocyte Antigen B-Associated Transcript 5 (BAT5/ABHD16A)” (PLoS ONE, 2014).

Each structure is given as a SMILES string.

For this data set, the target named is T1, hABHD6 (Homo sapiens, UniProt Q9BV23).
T1 construct: expressed in transfected cells; host or cells: HEK293
T1 sequence (Q9BV23 1-337): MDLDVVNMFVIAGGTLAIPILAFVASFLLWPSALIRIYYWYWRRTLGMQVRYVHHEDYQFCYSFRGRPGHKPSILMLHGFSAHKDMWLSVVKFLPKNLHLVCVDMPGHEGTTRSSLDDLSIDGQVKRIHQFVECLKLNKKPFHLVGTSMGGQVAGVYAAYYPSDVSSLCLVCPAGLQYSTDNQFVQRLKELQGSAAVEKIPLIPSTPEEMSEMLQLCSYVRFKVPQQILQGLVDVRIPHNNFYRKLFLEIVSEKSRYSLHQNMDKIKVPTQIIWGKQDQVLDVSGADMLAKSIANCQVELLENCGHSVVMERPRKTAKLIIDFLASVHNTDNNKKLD
Further details: method as in PMID 22969151. To be noted: hABHD6-HEK lysates; cited from earlier work.

For `CCCCCCCCCCC[C@@H](C[C@@H]1OC(=O)[C@H]1CCCCCC)OC(=O)[C@H](CC(C)C)NC=O` [THL, tetrahydrolipstatin], the IC50 is approximately 50 nM.
